{
  "source": "patent US20250090514A1",
  "about": "“METHOD OF TREATING CANCER” (Laekna Limited, priority 2019, published 2025)",
  "test_system": "MDX191210 tumor cells (abiraterone resistant prostate carcinoma)",
  "data": [
    {"molecule": "Cn1ncc(Cl)c1-c1cc(C(=O)N[C@H](CN)Cc2cccc(F)c2)sc1Cl", "note": "[afuresertib, N-{(1S)-2-amino-1-[(3-fluorophenyl)methyl]ethyl}-5-chloro-4-(4-chloro-1-methyl-1H-pyrazol-5-yl)-2-thiophenecarboxamide]", "values": [
      {"measurement": "Cell Viability (CTG Units) (Mean ± SEM)/Day 0 (second column; CTG values at the termination)", "setting": "MDX191210 MiniPDX, afuresertib 75 mg/kg p.o. QD x 7, CFG920 300 mg/kg p.o. BID, at termination", "value": "24516±2133", "unit": "CTG Units"},
      {"measurement": "Relative Proliferation (%)", "setting": "MDX191210 MiniPDX, afuresertib 75 mg/kg p.o. QD x 7, CFG920 300 mg/kg p.o. BID, relative to vehicle", "value": 53.37, "unit": "%"},
      {"measurement": "antitumor activity in MDX191210 MiniPDX model", "setting": "afuresertib 75 mg/kg, CFG920 300 mg/kg, P<0.01 vs vehicle", "value": "significant antitumor activity"}
    ]}
  ]
}
